System: human sebocytes
Assay: Sebaceous lipid synthesis by sebaceous cells (14C acetate, HPTLC)
Type: cell-based
Details: Cholera toxin & Bovine pituitary extract

For COc1ccccc1-c1nc(Nc2ccccc2)s[n+]1-c1ccccc1OC.[Br-] [Compound 74, 2-(2-methoxyphenyl)-3-(2-methoxyphenyl)-5-phenylamino-[1,2,4]-thiadiazol-2-ium], the “% Inh @ 0.4 μM Triglyceride” value (cell sex F/M, 0.4 μM) was 0%, the “% Inh @ 0.6 μM Triglyceride” value (cell sex F/M, 0.6 μM) was 0% and the “% Inh @ 0.4 μM Cholesterol ester” value (cell sex F, 0.4 μM) was 85%. The “% Inh @ 0.4 μM Wax ester” value (cell sex F, 0.4 μM) was 70%, the “% Inh @ 0.6 μM Cholesterol ester” value (cell sex F, 0.6 μM) was 88% and the “% Inh @ 0.6 μM Unknown lipid” value (cell sex F, 0.6 μM) was 85/80%. The “% Inh @ 0.6 μM Wax ester” value (cell sex F, 0.6 μM) was 67%, the “% Inh @ 0.4 μM Cholesterol ester” value (cell sex M, 0.4 μM) was 64% and the “% Inh @ 0.4 μM Wax ester” value (cell sex M, 0.4 μM) was 50%. For the same molecule, the “% Inh @ 0.6 μM Cholesterol ester” value (cell sex M, 0.6 μM) was 76% and the “% Inh @ 0.6 μM Wax ester” value (cell sex M, 0.6 μM) was 42%.
